AlphaSeq binding of Ab-14 light chain variants to a spike HR2 peptide

Reference: Li et al. 2023, doi:10.1038/s41467-023-39022-2. File: FLAb, binding data.

All variants were tested on one target, the spike HR2 peptide PDVDLGDISGINAS (SARS-CoV-2).

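The parent was found by panning a naive human phage display library on the peptide. This is the validation round: designs drawn from the data on random variants, tested in the same kind of assay. Group labels follow the data file (En: ensemble of fine-tuned language models; GP: Gaussian process model; HC: hill climbing; Gen: genetic algorithm; Gibbs: Gibbs sampling; a sequence that several methods proposed may carry one label only). AlphaSeq pools MATa yeast showing the antibodies with MATalpha yeast showing the peptide. The frequency of each diploid, read from paired DNA barcodes, reflects how well the two displayed proteins bind. The ratio of observed to expected reads was calibrated, replicate by replicate, on BCL2-family standards whose Kd was known from biolayer interferometry. Mating was done six times.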

Each scFv is VH, the linker GGGGSGGGGSGGGGS, VL, as in the parent Ab-14, and differs from it in the CDRs of the light chain only.
VH: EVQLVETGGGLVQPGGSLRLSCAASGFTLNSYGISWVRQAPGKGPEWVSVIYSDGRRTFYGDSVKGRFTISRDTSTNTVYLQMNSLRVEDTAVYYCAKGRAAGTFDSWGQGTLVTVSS
VL: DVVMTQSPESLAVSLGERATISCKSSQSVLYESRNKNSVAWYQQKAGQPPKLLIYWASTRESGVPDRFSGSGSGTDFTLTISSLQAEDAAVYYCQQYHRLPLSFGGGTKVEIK

Each variant is given by its three light chain CDRs, as the data file delimits them; those of the parent are KSSQSVLYESRNKNSVA, WASTRES, QQYHRLPLS.
Variants here have more than six changes.
Numbers give log10(Kd / nM), so 0 is 1 nM and 3 is 1 µM. Smaller is tighter.
A mean of the replicates is given; it leaves out those without a signal.
As a blank, each scFv also met three strains without target: over all light chain designs, 4% of these pairings were detected, typically at 2.64 and seldom below 1.59. The control count says in how many pairings with the empty strains this scFv gave a signal.

TISQMTSLFSQSINNVA, EVSTREK, QQYDRLPLT [En_Gen]: 1.11 (6 of 6 replicates; controls 0 of 18).
KISGSVMMLQRNDNSVA, DANTRES, QQYHRLPLS [GP_Gibbs]: -0.24 (6 of 6 replicates; controls 1 of 18).
KLGYMTAIESRNLNSVA, QMDTRES, QQYDRLPLS [En_HC]: 0.73 (1 of 6 replicates; controls 0 of 18).
KVSEFPRGLMSKQDSIA, DNVTRSN, QQYDRLPLS [En_Gen]: 2.96 (1 of 6 replicates; controls 0 of 18).
KVYGGINFQSSAKNSIA, EEVMRTK, QQYARLPLS [En_Gen]: 0.80 (6 of 6 replicates; controls 1 of 18).
VMQMQNDRMQDAAKNIA, GVDMRET, QQYFRLPFM [En_Gibbs]: 0.26 (6 of 6 replicates; controls 0 of 18).
MMSSLMGYESRHINNVA, QTTTREE, QQYDRLPLV [En_Gen]: 0.32 (6 of 6 replicates; controls 1 of 18).
KIPQSYLGEWRNFNSVA, NASQRES, QQYHRLPLS [GP_Gibbs]: -0.27 (6 of 6 replicates; controls 2 of 18).
KQQISVDQESRQKNSVA, NASQREE, QQYHRLPLS [GP_Gibbs]: 0.25 (6 of 6 replicates; controls 4 of 18).
NIVGRVEDKQTETANIA, DAECRAG, QQYSRLPLS [En_Gibbs]: 0.53 (6 of 6 replicates; controls 0 of 18).
TISMVMNHMTREKNNVA, NMDMRED, QQYDRLPLS [En_Gen]: -0.27 (6 of 6 replicates; controls 0 of 18).
KVQYSMEYESRNKNSVA, EASDRES, QDYHRLPLS [GP_Gibbs]: 1.76 (6 of 6 replicates; controls 0 of 18).
KISYMGEYFSTNHSSIA, QASTREE, QQYHRLPLS [En_HC]: 1.37 (6 of 6 replicates; controls 0 of 18).
KIGGTLNTLMHQKNNVA, DLVTREN, QQYHRLPLS [En_Gen]: -0.08 (6 of 6 replicates; controls 0 of 18).
SSNGNLRMGERNKNHVA, STDVRES, QQYSRLPLV [En_Gibbs]: 0.67 (6 of 6 replicates; controls 1 of 18).
MLSEMLHMLGTKKNSIA, DLVMRAN, QQYHRLPLF [En_Gen]: 1.93 (3 of 6 replicates; controls 0 of 18).
KFSQSVMYMSSVYNSVA, QMSTRAE, QQYNRLPLS [En_HC]: 0.52 (6 of 6 replicates; controls 1 of 18).
KLEMSVQLESRNKNSVA, SASTRER, QQYHRLPLS [GP_Gibbs]: 0.27 (6 of 6 replicates; controls 0 of 18).
VMQMDRLGQGQYQNNIA, NQDLRTA, QQYYMLPLV [En_Gibbs]: 0.71 (6 of 6 replicates; controls 1 of 18).
KLQMRMLYESRWKNSVA, NASLRES, QQYHRLPLS [GP_Gibbs]: 0.54 (6 of 6 replicates; controls 0 of 18).
AVQQSELYGSRNKNSVA, NASTRED, QQYHRLPLS [GP_Gibbs]: 0.10 (6 of 6 replicates; controls 1 of 18).
NFSQMVLTGSTLRNSVA, HASTRFE, QQYHRLPLI [En_HC]: 2.77 (3 of 6 replicates; controls 0 of 18).
KLSMLTEMSHVNRNSVA, ELVTRMS, QQYNRLPLS [En_Gen]: 0.95 (6 of 6 replicates; controls 0 of 18).
KILGVTNGISRNKNSVA, EQSTRED, QQYNRLPLS [En_HC]: 0.48 (6 of 6 replicates; controls 0 of 18).
TLGQVTMQLSRNKNSVA, DANTSED, QQYDRLPLS [En_HC]: 0.90 (6 of 6 replicates; controls 0 of 18).
MITDVMYNNNEGMQSIA, DKAISVN, QQYFRLPLD [En_Gibbs]: 3.09 (3 of 6 replicates; controls 0 of 18).
KLLQEVGGRSQNRNSVA, HNSTRED, QQYDRLPLI [En_HC]: 2.61 (2 of 6 replicates; controls 1 of 18).
TLGDVTRMESNKKSSIA, DMSNRAV, QQYHRLPIS [En_HC]: 0.51 (6 of 6 replicates; controls 1 of 18).
KLPQSVLYWQRNSNSVA, NASTRFS, QQYHRLPLS [GP_Gibbs]: 0.18 (6 of 6 replicates; controls 2 of 18).
TISMVMNHMTKNANNVA, NMDMREK, QQYDRLPLS [En_Gen]: -0.05 (6 of 6 replicates; controls 1 of 18).
KLSMSYRYETEEKNSIA, ELVTRMS, QQYHRLPLS [En_HC]: 2.34 (6 of 6 replicates; controls 0 of 18).
KISQDYEYESRNKNSVA, QASTRMV, QQYHRLPLS [GP_Gibbs]: -0.43 (6 of 6 replicates; controls 0 of 18).
RLLYQDLAQTGKLQSVA, DATITQQ, QQYHQLPLM [En_Gibbs]: 0.20 (6 of 6 replicates; controls 2 of 18).
KWQYSWLYSSRNKNSVA, EGSTRES, QQYHRLPLS [GP_Gibbs]: 0.79 (6 of 6 replicates; controls 0 of 18).
KMTEQLLNGEREPSNIA, AGVIGSD, QQYHRLPLI [En_Gibbs]: 1.22 (6 of 6 replicates; controls 3 of 18).
MISDLTMYGLRNVNSVA, DLSTRGS, QQYHRLPLS [En_HC]: 0.26 (6 of 6 replicates; controls 1 of 18).
MLVGPDEIEQHNWQSVA, SAEALAM, QQYFRLPLS [En_Gibbs]: 1.68 (3 of 6 replicates; controls 0 of 18).
SITVIDNPGSQLHNNIA, QGSCRAE, QQYIRLPLI [En_Gibbs]: 1.07 (6 of 6 replicates; controls 1 of 18).
HISYSMAHLSRNKNNVA, NQQTRES, QQYHRLPLS [En_HC]: 0.46 (6 of 6 replicates; controls 1 of 18).
ILSQSVLGGYHNKNSVA, QTSERGQ, QQYDRLPLS [En_HC]: 0.63 (6 of 6 replicates; controls 0 of 18).
KLTATYRFESQNKNNIA, EMTTRES, QCYHRLPLS [En_HC]: 2.41 (4 of 6 replicates; controls 1 of 18).

Top 4 of the variants detected in all replicates, tightest first:

For KISQDYEYESRNKNSVA, QASTRMV, QQYHRLPLS [GP_Gibbs], the assay gave -0.43 (6 of 6 replicates; controls 0 of 18).
For TISMVMNHMTREKNNVA, NMDMRED, QQYDRLPLS [En_Gen], the assay gave -0.27 (6 of 6 replicates; controls 0 of 18).
For KIPQSYLGEWRNFNSVA, NASQRES, QQYHRLPLS [GP_Gibbs], the assay gave -0.27 (6 of 6 replicates; controls 2 of 18).
For KISGSVMMLQRNDNSVA, DANTRES, QQYHRLPLS [GP_Gibbs], the assay gave -0.24 (6 of 6 replicates; controls 1 of 18).

A sequence measured in both rounds can read differently, since the two assays cover different ranges.
The authors' rule: three or more of the six replicates give a measured affinity, fewer mean a poor binder.